The structures appear in SMILES notation. Like-named read-outs stand apart in the source and are kept apart here.

These results are taken from patent US20200246352A1, “Vanadyl and vanadate for use in reducing stress-induced metabolic derangement” (CFM Pharma Holding B.V., priority 2017, published 2020).

The test system of this test is healthy male Wistar rats. As to conditions: high adrenaline dose (HA) 1 μg/kg/min. How it is done:
In the first part of the study (Table 1, Table 3, series 1), thirteen (13) healthy male Wistar rats were anesthetized by intraperitoneal (ip.) injection of thiopental (Tiobarbital 0.5 g, Braun Medical SA) after 12 hours of fasting.

`CNCC(O)c1ccc(O)c(O)c1` (stereo not drawn) [adrenaline]: the “Blood glucose levels, individual animals in duplicate” value stood at 16.5 mM/l (120 min), 17.3 mM/l (150 min) and 18.3 mM/l (180 min).
